The values that follow are results of earlier work, collected in patent publication US20080261895A1, “Isolated hydroxy and n-oxide metabolites and derivatives of O-desmethylvenlafaxine and methods of treatment” (Wyeth, priority 2006, published 2008).

Sequences of proteins named here, by UniProt entry; tags and fusion partners are left off.
UniProt P23975, whole entry: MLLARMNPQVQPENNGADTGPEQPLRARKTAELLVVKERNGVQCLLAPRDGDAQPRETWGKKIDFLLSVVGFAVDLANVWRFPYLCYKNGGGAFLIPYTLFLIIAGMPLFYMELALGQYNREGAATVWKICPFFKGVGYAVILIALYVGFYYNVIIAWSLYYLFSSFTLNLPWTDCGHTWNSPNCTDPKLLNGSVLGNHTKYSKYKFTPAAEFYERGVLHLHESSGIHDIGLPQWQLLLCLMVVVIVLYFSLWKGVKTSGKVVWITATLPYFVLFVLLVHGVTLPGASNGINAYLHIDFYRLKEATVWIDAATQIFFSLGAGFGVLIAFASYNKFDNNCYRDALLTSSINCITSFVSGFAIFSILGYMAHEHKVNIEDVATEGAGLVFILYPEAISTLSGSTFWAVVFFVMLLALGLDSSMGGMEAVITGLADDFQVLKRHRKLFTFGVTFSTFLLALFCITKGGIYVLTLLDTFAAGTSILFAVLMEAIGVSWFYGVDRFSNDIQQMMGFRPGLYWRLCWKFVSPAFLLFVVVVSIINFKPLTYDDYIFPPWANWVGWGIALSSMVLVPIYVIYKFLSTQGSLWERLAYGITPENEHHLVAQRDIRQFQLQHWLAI
UniProt Q01959, whole entry: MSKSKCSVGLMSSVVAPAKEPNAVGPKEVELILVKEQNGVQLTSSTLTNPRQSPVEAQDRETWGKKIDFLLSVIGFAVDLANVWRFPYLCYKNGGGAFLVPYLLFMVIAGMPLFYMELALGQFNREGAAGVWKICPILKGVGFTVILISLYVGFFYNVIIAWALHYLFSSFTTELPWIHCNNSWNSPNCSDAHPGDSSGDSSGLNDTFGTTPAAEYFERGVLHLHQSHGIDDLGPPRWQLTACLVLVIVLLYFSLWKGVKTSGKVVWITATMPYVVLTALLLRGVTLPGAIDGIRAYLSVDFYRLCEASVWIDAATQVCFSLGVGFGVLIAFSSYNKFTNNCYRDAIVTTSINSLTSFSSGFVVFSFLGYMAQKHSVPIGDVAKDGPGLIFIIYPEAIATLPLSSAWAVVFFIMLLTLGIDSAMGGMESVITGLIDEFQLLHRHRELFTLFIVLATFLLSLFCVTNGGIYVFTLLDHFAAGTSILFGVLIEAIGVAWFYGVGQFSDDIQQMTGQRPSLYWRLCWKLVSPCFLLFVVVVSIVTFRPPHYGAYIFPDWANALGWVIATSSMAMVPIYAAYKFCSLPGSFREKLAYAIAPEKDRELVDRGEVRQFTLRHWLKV
UniProt P31645, whole entry: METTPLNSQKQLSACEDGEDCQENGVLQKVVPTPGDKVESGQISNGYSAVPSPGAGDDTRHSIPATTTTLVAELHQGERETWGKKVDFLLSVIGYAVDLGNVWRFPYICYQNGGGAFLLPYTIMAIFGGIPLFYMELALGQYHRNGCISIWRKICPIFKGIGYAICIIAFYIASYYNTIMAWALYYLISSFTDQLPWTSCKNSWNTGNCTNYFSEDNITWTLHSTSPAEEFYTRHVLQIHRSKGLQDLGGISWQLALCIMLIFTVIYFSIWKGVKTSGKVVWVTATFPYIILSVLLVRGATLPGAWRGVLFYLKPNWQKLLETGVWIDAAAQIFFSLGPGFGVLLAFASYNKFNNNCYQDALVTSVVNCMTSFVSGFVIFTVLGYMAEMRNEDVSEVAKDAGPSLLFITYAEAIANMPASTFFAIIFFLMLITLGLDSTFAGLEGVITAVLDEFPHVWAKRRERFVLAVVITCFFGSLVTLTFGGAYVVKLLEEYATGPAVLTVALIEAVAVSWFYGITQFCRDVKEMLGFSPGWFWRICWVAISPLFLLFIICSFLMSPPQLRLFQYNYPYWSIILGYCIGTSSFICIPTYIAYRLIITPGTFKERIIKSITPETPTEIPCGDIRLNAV

For one series, the target named is Norepinephrine reuptake (Homo sapiens, UniProt P23975). To be noted: read-out: Inhibition of amine reuptake (IC50; uM): Norepinephrine; in vitro; cited from earlier work.
In the next series the target is Dopamine reuptake (Homo sapiens, UniProt Q01959). As to conditions: in vitro; read-out: Inhibition of amine reuptake (IC50; uM): Dopamine; cited from earlier work.
Another series concerns the target Serotonin reuptake (Homo sapiens, UniProt P31645). As to conditions: read-out: Inhibition of amine reuptake (IC50; uM): Serotonin; in vitro; cited from earlier work.

As for `CN(C)CC(c1ccc(O)cc1)C1(O)CCCCC1` (stereo not drawn) [O-DESMETHYLVENLAFAXINE, 1-[2-(dimethylamino)-1-(4-phenol)ethyl]-cyclohexanol], the figures for the IC50 on Norepinephrine reuptake, at Dopamine reuptake and on Serotonin reuptake were 1.16 µM, 13.4 µM and 0.18 µM, respectively.
